Patent US12173004B2, “Pharmaceutical compositions comprising heterocycle fused gamma carboline prodrugs” (INTRA-CELLULAR THERAPIES, INC., priority 2017, dated 2024)
Read-outs that look alike come from different tables or passages of the source.

What was measured:
[1] = mice
[2] = in vivo; conditions: mouse, plasma, po, 10 mg/kg
[3] = SC, 0.1 mg/kg (45% Trapposol veh)

O=C1CN2c3c(cccc3[C@@H]3CN(CCCOc4ccc(F)cc4)CC[C@@H]32)N1 [Example 2, (6bR,10aS)-8-(3-(4-fluorophenoxy)propyl)-6b,7,8,9,10,10a-hexahydro-1H-pyrido[3′,4′:4,5]pyrrolo[1,2,3-de]quinoxalin-2(3H)-one]
Brain (ng/g), 0.5 hr ([1]; PO, 10 mg/kg (0.5% CMC veh)): 1180 ng/g
Brain (ng/g), 1 hr ([1]; PO, 10 mg/kg (0.5% CMC veh)): 989 ng/g
Brain (ng/g), 2 hr ([1]; PO, 10 mg/kg (0.5% CMC veh)): 699 ng/g
Brain (ng/g), 4 hr ([1]; PO, 10 mg/kg (0.5% CMC veh)): 734 ng/g
Brain (ng/g), […] ([1]; PO, 10 mg/kg (0.5% CMC veh)): 1288 ng/g
Plasma (ng/mL), 1 hr ([1]; PO, 10 mg/kg (0.5% CMC veh)): 258 ng/mL
Plasma (ng/mL), 2 hr ([1]; PO, 10 mg/kg (0.5% CMC veh)): 153 ng/mL
Plasma (ng/mL), 4 hr ([1]; PO, 10 mg/kg (0.5% CMC veh)): 199 ng/mL
Plasma (ng/mL), […] ([1]; PO, 10 mg/kg (0.5% CMC veh)): 279 ng/mL
Brain (ng/g), 0.5 hr [1, 3]: 71.9 ng/g
Brain (ng/g), 1 hr [1, 3]: 78.5 ng/g
Brain (ng/g), 2 hr [1, 3]: 38.7 ng/g
Brain (ng/g), 4 hr [1, 3]: 32.6 ng/g
Brain (ng/g), […] [1, 3]: 57.1 ng/g
Plasma (ng/mL), 0.5 hr [1, 3]: 31.1 ng/mL
Plasma (ng/mL), 1 hr [1, 3]: 29.2 ng/mL
Plasma (ng/mL), 2 hr [1, 3]: 14.6 ng/mL
Plasma (ng/mL), […] [1, 3]: 27.5 ng/mL
AUC(0-t) [2]: 759 ng·h/mL
Cmax [2]: 279 ng/mL
